DSG3 Ab inh = blocks pemphigus antibody binding to human desmoglein-3 | actives 0.48% (n = 310,000) | P32926 | binding (percent of control), % at 10 µM | DSG3-coupled beads, scFv-anti-DSG3-GFP binding, flow cytometry; hits give low values;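 active means binding more than 3 SD below its plate's average and above zero; inconclusive means below that plate limit but binding exactly zero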;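 further: hits lower antibody fragment binding to DSG3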
eIF4H inh = inhibitors of RNA binding by human eIF4H; eIF4H fluorescence polarization binding assay; Q15056; actives 0.94% (n = 290,000); AID 2012; inhibition, % at 35 µM;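 further: calls also rest on retests at 20 µM and on dose response follow-up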
UUG fidelity = modulators of start codon recognition fidelity in yeast; AID 602363; activity score, % at 18.7 µM; S. cerevisiae UUG-firefly luciferase reporter, luminescence/redox ratio; actives 0.13% (n = 350,000);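 active = replicate mean at a twofold rise or more, about +100% in these data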;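 note: firefly luciferase made from a UUG start codon reports start codon fidelity; reporter light over untreated wells divided by growth signal over untreated wells; some hits fall short of that in this replicate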
PABP1 MLLE inh = blocks PAM2 peptide binding to the PABP1 MLLE domain. P11940. GST-MLLE / FITC-PAM2 fluorescence polarization. inhibition, % at 20 µM. actives 0.36% (n = 360,000). AID 588489; in the data active means inhibition above about 35%, passing the limit was not always enough
PABP FP inh = PABP-poly(A) binding inhibition; P11940; PABP-poly(A) RNA binding, fluorescence polarization; calls only at 35 µM; actives 1% (n = 290,000);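 further: calls also rest on retests at 20 µM and on dose response follow-up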
Hits are given with their value; - = inactive; ? = inconclusive; . = no result given; + = active, no number. The list is not random: actives were taken first. Their share in the collection is about 1.5%. Unless noted, how the calls were made is not given here.

SMILES	DSG3 Ab inh	eIF4H inh	UUG fidelity	PABP1 MLLE inh	PABP FP inh
O=C(/N=C1\NC(=O)C(F)(C(F)(F)F)S1)NC1CCCCC1 (configuration not stated)	.	121.8	-	-	-
CCCNC(=O)NC[C@H]1[C@@H](c2ccc(C3=CCCCC3)cc2)[C@H](CO)N1C(C)=O	.	.	-	.	.
Cc1cc(C)c2[nH]c(=O)c(CN(Cc3cccs3)C(=S)NCC3CCCO3)cc2c1 (configuration not stated)	84.9	-	-	-	-
O=C(Nc1ccccc1)OCCOc1ccccc1Br	68.9	-	-	-	-
O=C(Nc1ccccc1)OCCCCCOC(=O)Nc1ccccc1	78.7	-	-	-	-
O=C(Nc1ccccc1)OCCOc1ccccc1	-	-	-	-	-
CC(=O)c1cccc(S(=O)(=O)NC2CCSc3ccccc32)c1 (configuration not stated)	-	-	-	47.1	-
NS(=O)(=O)c1cc(C(=O)NC2CCSc3ccccc32)ccc1Cl (configuration not stated)	-	106.0	-	-	+
CC(C)c1cn(CC[C@H]2CC[C@@H](NC(=O)C3CCC3)[C@H](CO)O2)nn1	.	.	-	.	.
C[C@@H]1CN([C@H](C)CO)C(=O)c2cc(NC(=O)Nc3ccccc3)ccc2O[C@H]1CN(C)C(=O)Nc1cccc2ccccc12	.	.	-	.	.
COc1cccc(CC(=O)N2CCN(c3ccccc3[N+](=O)[O-])CC2)c1	-	52.1	-	-	+
CCCCC(=O)N1CCN(c2ccc(OC)cc2[N+](=O)[O-])CC1	-	-	-	-	-
COc1cccc(CN2CCC(C(=O)N3CCN(c4ccccc4F)CC3)CC2)c1	-	61.1	-	-	-
Cc1ccc(S(=O)(=O)N[C@@H]2CC[C@@H](CCNC(=O)CN3CCOCC3)O[C@H]2CO)cc1	.	.	-	.	.
O=C(C[C@H]1CC[C@@H](NC(=O)Nc2ccc(C(F)(F)F)cc2)[C@H](CO)O1)NCc1ccccn1	.	.	-	.	.
COCC#Cc1ccc2c(c1)O[C@H](CN(C)C(=O)C1CCC1)[C@H](C)CN([C@@H](C)CO)S2(=O)=O	.	.	-	.	.
CCc1ccc(S(=O)(=O)/N=C2/C=C(Sc3ncn[nH]3)C(=O)c3ccccc32)cc1	.	-	.	46.4	-
C[C@H]1CN([C@@H](C)CO)C(=O)c2cccc(NC(=O)Nc3cccc4ccccc34)c2O[C@H]1CN(C)S(=O)(=O)c1ccccc1	.	.	-	.	.
COC(=O)Nc1nnc(-c2ccncc2)s1	-	-	-	36.3	-
Cc1ccc(NC(=O)Nc2nnc(-c3ccncc3)s2)cc1C	-	-	.	-	-
CC(=O)Nc1ccc(SC[C@H](C)CN2CC[C@H](C(C)(C)C)CCC2=O)cc1	-	.	-	46.1	.
CS(=O)(=O)Nc1ccc2c(c1)[C@H]1C[C@@H](CC(=O)N3CCCCC3)O[C@@H](CO)[C@H]1O2	.	.	-	.	.
C[C@@H]1CN([C@@H](C)CO)C(=O)c2cc(-c3ccccc3)cnc2O[C@@H]1CN(C)C(=O)Cc1ccccn1	.	.	-	.	.
Nc1n[nH]c2cc(=O)n(-c3ccc(Cl)cc3)nc12	-	99.3	.	-	+
C[C@@H]1CCC2[C@](C)(CO)[C@@H](O)CC[C@]2(C)[C@@]12CC[C@@](CO)(CC(=O)O)O2 (some centres not stated)	-	-	-	53.1	-
SMILES	DSG3 Ab inh	eIF4H inh	UUG fidelity	PABP1 MLLE inh	PABP FP inh
O=C(CCN1CCOCC1)NNC(=S)NC(=O)c1ccccc1	-	-	-	38.4	-
CC(=O)OCCNc1cc(SCc2ccco2)c2nonc2c1[N+](=O)[O-]	-	-	-	-	-
O=[N+]([O-])c1c(NCCCO)cc(SCc2ccco2)c2nonc12	-	?	.	41.0	-
CSc1nsc(NC(=O)OCc2ccc(Cl)cc2)n1	-	-	-	-	-
CSc1nsc(NN)n1	-	.	-	41.7	.
COc1ccccc1NC(=O)c1sc2nc(Cc3ccccc3)cc(C(F)(F)F)c2c1N	-	65.3	.	-	+
COc1ccc(S(=O)(=O)N(C)C[C@@H]2OCCCC[C@H](C)Oc3ccc(NS(=O)(=O)c4ccc(F)cc4)cc3C(=O)N([C@@H](C)CO)C[C@H]2C)cc1	.	.	-	.	.
CC(C)NC(=O)N(C)C[C@@H]1Oc2ccc(NC(=O)Nc3ccccc3)cc2CC(=O)N([C@@H](C)CO)C[C@@H]1C	.	.	-	.	.
O=C(Nc1nnc(C23CC4CC(CC(C4)C2)C3)s1)c1ccco1	71.2	-	-	-	-
O=C(c1cc2cc([N+](=O)[O-])ccc2oc1=O)n1cccn1	-	-	-	-	+
CCN1CCN(C(=O)c2cc3cc([N+](=O)[O-])ccc3oc2=O)CC1	-	-	.	-	-
O=C(C[C@H]1C[C@@H]2c3cc(NC(=O)CC4CC4)ccc3O[C@@H]2[C@H](CO)O1)NCc1cc(F)ccc1F	.	.	-	.	.
CCCCn1c(NC(=O)c2ccc(Br)o2)c(S(=O)(=O)c2ccccc2)c2nc3ccccc3nc21	-	55.7	-	-	+
CO[C@@H]1CN(C)C(=O)c2ccc(NS(=O)(=O)c3cn(C)cn3)cc2OC[C@@H](C)N(C)C[C@@H]1C	.	.	-	.	.
CC(C)(C)c1cc(-c2csc(Nc3ccccc3)[n+]2Cc2ccc(C(=O)O)cc2)cc(C(C)(C)C)c1O	-	52.4	-	-	+
O=C(Nc1ccc(F)cc1)N[C@H]1CC[C@@H](CCn2cc(-c3ccccc3F)nn2)O[C@H]1CO	.	.	-	.	.
CC(=O)N(C)C[C@@H]1Oc2cc(-c3cccc(F)c3)ccc2S(=O)(=O)N([C@@H](C)CO)C[C@H]1C	.	.	-	.	.
COCCn1c(C)cc(/C=C2\NC(=S)N(C)C2=O)c1C	-	-	.	-	+
COc1ccc2c(C#N)c3ccccn3c2c1	-	-	-	54.4	-
COCCCNC(=O)[C@]1(Cc2ccccc2N=[N+]=[N-])N=C(c2ccc(OCCCO)cc2)O[C@@H]1c1ccccc1	.	.	-	.	.
Cc1ccc(CN(CC(=O)NC2CCCC2)C(=O)CSc2nnc(COc3ccccc3)o2)cc1	.	-	-	41.5	-
S=c1[nH]cc2cnccn12	-	.	-	69.5	.
COCCCNC(=S)N(CCO)Cc1cc2cc3c(cc2[nH]c1=O)OCCO3	-	-	-	40.5	-
COCCNC(=S)N(CCO)Cc1cc2cc3c(cc2[nH]c1=O)OCCO3	-	-	-	39.3	-
O=C(c1ccccc1)N(CCO)Cc1cc2cc3c(cc2[nH]c1=O)OCCO3	-	-	.	56.6	?
SMILES	DSG3 Ab inh	eIF4H inh	UUG fidelity	PABP1 MLLE inh	PABP FP inh
O=C(c1ccco1)N(CCO)Cc1cc2cc3c(cc2[nH]c1=O)OCO3	-	-	-	-	-
Cc1cc(=O)n2nc(-c3ccccc3)sc2n1	-	56.5	-	-	+
COC(=O)c1cc(=O)nc2sc(-c3ccccc3)nn12	-	-	-	-	-
O=C(N/N=C/c1ccc([N+](=O)[O-])o1)c1cc2ccccc2o1	-	69.5	.	-	+
O=C(N/N=C\c1ccc([N+](=O)[O-])o1)c1cncc(Br)c1	-	70.7	-	-	+
O=C(N/N=C/c1ccc(-c2ccccc2[N+](=O)[O-])o1)c1cncc(Br)c1	-	-	.	-	-
O=C(N/N=C/c1ccc([N+](=O)[O-])o1)c1cc2c(ccc3ccccc32)o1	-	-	.	-	+
